Assay results: patent publication US9725445B2, “Cycloalkyl nitrile pyrazolo pyridones as Janus kinase inhibitors” (Merck Sharp & Dohme Corp., priority 2013, dated 2017)

Protein sequences, listed by entry. Tags and fused reporters are not part of them. Residues count along the entry.
UniProt P23458, 875-1153: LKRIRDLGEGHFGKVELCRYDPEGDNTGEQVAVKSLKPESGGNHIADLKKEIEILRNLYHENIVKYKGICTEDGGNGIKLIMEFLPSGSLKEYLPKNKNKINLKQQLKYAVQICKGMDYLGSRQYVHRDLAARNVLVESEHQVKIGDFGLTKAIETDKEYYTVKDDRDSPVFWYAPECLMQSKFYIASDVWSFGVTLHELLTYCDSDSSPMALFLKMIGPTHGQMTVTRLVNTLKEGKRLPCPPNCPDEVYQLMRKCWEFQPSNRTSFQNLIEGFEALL
UniProt O60674, 849-1124: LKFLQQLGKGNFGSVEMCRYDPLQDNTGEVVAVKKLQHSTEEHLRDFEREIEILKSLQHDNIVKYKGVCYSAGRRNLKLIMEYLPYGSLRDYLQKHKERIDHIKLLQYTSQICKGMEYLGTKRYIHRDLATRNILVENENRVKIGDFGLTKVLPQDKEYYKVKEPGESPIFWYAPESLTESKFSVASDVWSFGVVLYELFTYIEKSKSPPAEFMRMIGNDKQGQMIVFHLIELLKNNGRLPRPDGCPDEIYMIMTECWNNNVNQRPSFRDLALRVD

What was measured:
JAK1 = JAK1 (Homo sapiens (Human), UniProt P23458); test: Jak biochemical HTRF assay, JAK1; conditions: recombinant GST-tagged catalytic domain
Experimental: Jak Biochemical HTRF Assay Protocol
The ability of compounds to inhibit the activity of JAK1, JAK2, JAK3, and Tyk2 was measured using a recombinant purified GST-tagged catalytic domain for each enzyme (Invitrogen JAK1 #M4290, JAK2 #M4290, JAK3 #M4290, Tyk2 #M4290) in an HTRF format biochemical assay. […] The basic assay protocol is as follows: First, 250 nL of diluted compounds in DMSO were dispensed into the wells of a dry 384-well Black plate (Greiner #781076) using a Labcyte Echo 555 acoustic dispenser. Subsequent reagent additions employed an Agilent Bravo. […] After equilibration, 2 μL of 10×ATP in 1× assay buffer was added to initiate the kinase reaction and the plates were shaken and then incubated at room temperature for 120 minutes. […] Plates were shaken and centrifuged and then incubated 60 minutes at room temperature and then read on a Perkin Elmer Envision (λex=337 nm, λem=665 and 615 nm, TRF delay time=20 μs). HTRF signal=10,000*665 nm reading/615 nm reading. After normalization to untreated controls, the percent inhibition of the HTRF signal at each compound concentration was calculated. The plot of percent inhibition versus the log of compound concentration was fit with a 4-parameter dose response equation to calculate IC50 values.
Final Reaction Conditions were:
Examples of the instant invention were evaluated in JAK1 and JAK2 in vitro binding assays.

JAK2 = JAK2 (Homo sapiens (Human), UniProt O60674); test: Jak biochemical HTRF assay, JAK2; conditions: recombinant GST-tagged catalytic domain

| SMILES | IC50 (JAK1) [nM] | IC50 (JAK2) [nM] |
| --- | --- | --- |
| CS(=N)(=O)c1ccc(Nc2nn(C3CCCC[C@@H]3C#N)c3cc[nH]c(=O)c23)cc1 (single isomer, unassigned) [Example 3-110, (1S,2S)-2-(3-{[4-((S or R)-S-methylsulfonimidoyl)phenyl]amino}-4-oxo-4,5-dihydro-1H-pyrazolo[4,3-c]pyridin-1-yl)cyclohexanecarbonitrile] | 0.42 | 1.1 |
| CS(=N)(=O)c1ccc(Nc2nn(C3CCCC[C@@H]3C#N)c3cc[nH]c(=O)c23)cc1 (single isomer, unassigned) [Example 3-111, (1S,2S)-2-(3-{[4-((S or R)-S-methylsulfonimidoyl)phenyl]amino}-4-oxo-4,5-dihydro-1H-pyrazolo[4,3-c]pyridin-1-yl)cyclohexanecarbonitrile] | 0.23 | 0.88 |
| CCOC(=O)C(C)(C)C(O)(c1ccc(Nc2nn([C@H]3CCCC[C@@H]3C#N)c3cc[nH]c(=O)c23)cc1)C(F)(F)F (single isomer, unassigned) [Example 3-117, (R or S) Ethyl 3-(4-((1-((1S,2S)-2-cyanocyclohexyl)-4-oxo-4,5-dihydro-1H-pyrazolo[4,3-c]pyridin-3-yl)amino)phenyl)-4,4,4-trifluoro-3-hydroxy-2,2-dimethylbutanoate] | 1.7 | 6 |
| CCOC(=O)C(C)(C)C(O)(c1ccc(Nc2nn([C@H]3CCCC[C@@H]3C#N)c3cc[nH]c(=O)c23)cc1)C(F)(F)F (single isomer, unassigned) [Example 3-118, (R or S) Ethyl 3-(4-((1-((1S,2S)-2-cyanocyclohexyl)-4-oxo-4,5-dihydro-1H-pyrazolo[4,3-c]pyridin-3-yl)amino)phenyl)-4,4,4-trifluoro-3-hydroxy-2,2-dimethylbutanoate] | 0.5 | 0.88 |
| CC(C)(C)S(=O)(=O)c1ccc(Nc2nn([C@H]3CCCCC[C@@H]3C#N)c3cc[nH]c(=O)c23)cc1 (single isomer, unassigned) [Example 3-167, (1S,2S or 1R,2R)-2-(3-{[4-(tert-butylsulfonyl)phenyl]amino}-4-oxo-4,5-dihydro-1H-pyrazolo[4,3-c]pyridin-1-yl)cycloheptanecarbonitrile] | 6.9 | 8.6 |
| CC(C)(C)S(=O)(=O)c1ccc(Nc2nn([C@@H]3CCCCC[C@H]3C#N)c3cc[nH]c(=O)c23)cc1 (single isomer, unassigned) [Example 3-168, (1R,2R or 1S,2S)-2-(3-{[4-(tert-butylsulfonyl)phenyl]amino}-4-oxo-4,5-dihydro-1H-pyrazolo[4,3-c]pyridin-1-yl)cycloheptanecarbonitrile] | 0.17 | 0.34 |
| CC(C)(C)S(=O)(=O)c1ccc(Nc2nn([C@H]3CCCCC[C@H]3C#N)c3cc[nH]c(=O)c23)cc1 (single isomer, unassigned) [Example 3-169, (1R,2S or 1S,2R)-2-(3-{[4-(tert-butylsulfonyl)phenyl]amino}-4-oxo-4,5-dihydro-1H-pyrazolo[4,3-c]pyridin-1-yl)cycloheptanecarbonitrile] | 1.2 | 0.95 |
| CC(C)(C)S(=O)(=O)c1ccc(Nc2nn([C@@H]3CCCCC[C@@H]3C#N)c3cc[nH]c(=O)c23)cc1 (single isomer, unassigned) [Example 3-170, (1S,2R or 1R,2S)-2-(3-{[4-(tert-butylsulfonyl)phenyl]amino}-4-oxo-4,5-dihydro-1H-pyrazolo[4,3-c]pyridin-1-yl)cycloheptanecarbonitrile] | 2.4 | 1.7 |
| N#C[C@H]1CCCC[C@@H]1n1nc(Nc2ccc3c(c2)C(O)C2(CCOCC2)S3(=O)=O)c2c(=O)[nH]ccc21 (single isomer, unassigned) [Example 15-65, (1S,2S)-2-(3-{[(3S or 3R)-3-hydroxy-1,1-dioxido-2′,3′,5′,6′-tetrahydro-3H-spiro[1-benzothiophene-2,4′-pyran]-5-yl]amino}-4-oxo-4,5-dihydro-1H-pyrazolo[4,3-c]pyridin-1-yl)cyclohexanecarbonitrile] | 1.1 | 0.41 |
| N#C[C@H]1CCCC[C@@H]1n1nc(Nc2ccc3c(c2)C(O)C2(CCOCC2)S3(=O)=O)c2c(=O)[nH]ccc21 (single isomer, unassigned) [Example 15-66, (1S,2S)-2-(3-{[(3R or 3S)-3-hydroxy-1,1-dioxido-2′,3′,5′,6′-tetrahydro-3H-spiro[1-benzothiophene-2,4′-pyran]-5-yl]amino}-4-oxo-4,5-dihydro-1H-pyrazolo[4,3-c]pyridin-1-yl)cyclohexanecarbonitrile] | 0.11 | 0.27 |
| Cc1cc(Nc2nn([C@H]3CC(F)(F)C[C@H]3C#N)c3cc[nH]c(=O)c23)ccc1C(=O)N1CCCC1 (single isomer, unassigned) [Example 22-6, (1R,2S or 1S,2R)-4,4-difluoro-2-(3-{[3-methyl-4-(pyrrolidin-1-ylcarbonyl)phenyl]amino}-4-oxo-4,5-dihydro-1H-pyrazolo[4,3-c]pyridin-1-yl)cyclopentanecarbonitrile] | 114 | 33 |
| Cc1cc(Nc2nn([C@@H]3CC(F)(F)C[C@H]3C#N)c3cc[nH]c(=O)c23)ccc1C(=O)N1CCCC1 (single isomer, unassigned) [Example 22-7, (1R,2R or 1S,2S)-4,4-difluoro-2-(3-{[3-methyl-4-(pyrrolidin-1-ylcarbonyl)phenyl]amino}-4-oxo-4,5-dihydro-1H-pyrazolo[4,3-c]pyridin-1-yl)cyclopentanecarbonitrile] | 0.28 | 0.51 |
| Cc1cc(Nc2nn([C@H]3CC(F)(F)C[C@@H]3C#N)c3cc[nH]c(=O)c23)ccc1C(=O)N1CCCC1 (single isomer, unassigned) [Example 22-8, (1S,2S or 1R,2R)-4,4-difluoro-2-(3-{[3-methyl-4-(pyrrolidin-1-ylcarbonyl)phenyl]amino}-4-oxo-4,5-dihydro-1H-pyrazolo[4,3-c]pyridin-1-yl)cyclopentanecarbonitrile] | 19 | 17 |
